Assay results as given in ChEMBL document CHEMBL1128184, “Topoisomerase II-mediated DNA cleavage by adocia- and xestoquinones from the Philippine sponge Xestospongia sp” (J Med Chem, 1995).

Experiment: Ratio of BR1 IC50 to xrs-6 IC50
Type: functional
In short: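 MTT assay run in parallel on repair-competent CHO BR1 (40 000 cells/well) and repair-deficient xrs-6 (60 000 cells/well), both in αMEM with serum. 4 h attachment, then 18 h drug exposure from DMSO (final 1% or less), then drug-free medium. Four wells per dose, A540 against DMSO controls. The ratio is the BR1 IC50 divided by the xrs-6 IC50.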

For O=C1c2c(O)ccc(O)c2C(=O)c2c(NCCNCCO)ccc(NCCNCCO)c21 [MITOXANTRONE], which Ratio is on record?
Its Ratio is 9.
